Experimental findings from US6716833B2, “Acetylenic α-amino acid-based sulfonamide hydroxamic acid tace inhibitors” (priority 1999, dated 2004) are described below.

In this assay the target is MMP-13 (Homo sapiens, UniProt P45452). The experiment in a line: MMP-13 inhibition (thiopeptide or fluorescent peptide substrate). It is filed as biochemical.

As a reminder, the IC50 is the concentration that gives 50% inhibition. A high value points to a need for much substance. The compound `CC#CCOc1ccc(S(=O)(=O)NC(CSC)C(=O)NO)cc1` (centres unmarked) [Example 167] registered an IC50 of 40 nM.
As to `CC#CCOc1ccc(S(=O)(=O)NC(CSCc2ccccc2)C(=O)NO)cc1` (centres unmarked) [Example 168], the midpoint of inhibition, the IC50, lay at 16 nM.
